Results on two compounds are retold here after patent US8945853B2, “Detection of intracellular binding events by measuring protein abundance” (DiscoveRx Corporation, priority 2012, dated 2015).

By UniProt entry, the sequences of proteins in these tests, tags left out.
UniProt P10415, whole entry: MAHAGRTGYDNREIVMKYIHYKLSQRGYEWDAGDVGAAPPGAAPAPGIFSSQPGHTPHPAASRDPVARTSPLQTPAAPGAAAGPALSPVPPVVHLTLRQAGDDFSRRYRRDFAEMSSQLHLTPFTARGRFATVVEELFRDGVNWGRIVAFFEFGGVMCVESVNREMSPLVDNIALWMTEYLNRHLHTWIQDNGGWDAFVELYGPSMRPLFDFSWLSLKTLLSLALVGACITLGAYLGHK

In one assay the target is MEK (58-371)-PL fusion (Homo sapiens, UniProt Q02750). The settings on record: CHO cells, over a period of time.
The next assay has as its target BCL-2 / PL-Bak (Homo sapiens, UniProt P10415). Kind of assay: BCL-2 co-expressed with PL-Bak in U2OS cells, disruption by small molecules (FIG. 7C). The format is cell-based. Particulars: overnight, luminescence. As for the experimental part: Interaction of BCL-2 with a peptide test compound (Bim, Bak, and Bax) was studied.
The native BCL-2 was co-expressed with each of the ProLabel fusions in U2OS cells. Small molecules that are reported to disrupt BCL-2 interactions were then applied to the cells and incubated overnight.
Cells were transduced with the indicated target PL-fusion and the untagged protein Bcl-2. The cells were treated with the indicated compounds overnight and the remaining target-PL fusion was detected by lysing the cells in the presence of EA and substrate. Luminescence was measured 30 minutes later.

On to `N#CC(=C(/N)Sc1ccccc1N)/C(C#N)=C(\N)Sc1ccccc1N` [U0126, (2Z,3Z)-2,3-bis(amino(2-aminophenylthio)methylene)succinonitrile], for which the “signal (MEK-PL fusion) compared to cells incubated with dasatinib” value on MEK (58-371)-PL fusion is given as “gain in signal”.

Take `CC1(C)CCC(c2ccc(Cl)cc2)=C(CN2CCN(c3ccc(C(=O)NS(=O)(=O)c4ccc(N[C@H](CCN5CCOCC5)CSc5ccccc5)c(S(=O)(=O)C(F)(F)F)c4)cc3)CC2)C1` [ABT-263]: at BCL-2 / PL-Bak, the “Top (best-fit)” value is 11081.
